A short description of series [1]: Quantitative solubility of G2PEA-insulin and insulin in buffer at pH 7.2 and pH 5.4. The conditions noted are these: Table 8, pH 5.4.
Series [2] is described as follows: Visual solubility of G2PEA-insulin at pH 4 versus pH ~7. Type of series: physicochemical.
Series [3] in a line: Photolysis of G2PEA-insulin in PBS pH 7.2, insulin released into supernatant. It is filed as physicochemical. The text has this: The drug conjugate was then examined in aqueous buffer (phosphate buffered saline or PBS) at pH 7.2.

A word on the Solubility: it is how much of the substance goes into solution per volume. Read a high Solubility as a readily soluble substance. As to “G2PEA-insulin drug conjugate: drug conjugate of insulin and glutamic acid condensed with two 1-(2-Aminoethyl)pyrrolidine moieties (G2PEA), photocleavable link”, the Solubility in series [1] stood at 112.9 ± 17.8 µM. The appearance of solution entry in series [2] (acidic pH 4) is “completely clear”; in series [2] (pH adjusted to ~7 with buffer), “the solution goes cloudy”. The solubility in words result in series [3] was “largely insoluble”.

For the origin of these results see patent US20200147215A1, “DRUG CONJUGATES WITH PHOTOCLEAVABLE SOLUBILITY MODULATORS” (priority 2017, published 2020).
